System: liver fibrosis model in rat induced by CCl4
Experiment: Prophylaxis action on liver fibrosis in rats induced by CCl4 with high lipid, low protein food
Assay type: in vivo
Details: CCl4 fibrotic rats; 6 weeks dosing; x ± s
Experimental: Pharmacological model: The liver fibrosis model in rat was induced by hypodermical injection of CCl4 and fed with the food containing high lipid and low protein. 100 wt % CCl4 was used at the first injection with a dosage of 1 ml/kg wt rat, then 40 wt % CCl4 in olive oil with a dosage of 3 ml/kg wt. was applied, twice per week and lasting for 2 weeks. During the first 2 weeks of intoxication, the rats were fed with the food containing 79.5 wt % maizena, 20 wt % grease and 0.5 wt % cholesterol, then with the pure maize food for later 4 weeks.
All dosages were 10 times human dosage with 65 kg by the same body weight.

Substance: Vitamin E [Vit E]
- Serum Alb: 27.7 ± 1.1 g/L
